For two substances, Kd and Duffy selectivity results are on record in patent EP2386565A2, “Compounds and methods to inhibit or augment an inflammatory response” (Cambridge Enterprise Ltd., priority 1999, dated 2000).

The target in experiment [1] is T1, Duffy Antigen Receptor for Chemokines (DARC) (human) (UniProt Q16570).
T1 sequence (looked up): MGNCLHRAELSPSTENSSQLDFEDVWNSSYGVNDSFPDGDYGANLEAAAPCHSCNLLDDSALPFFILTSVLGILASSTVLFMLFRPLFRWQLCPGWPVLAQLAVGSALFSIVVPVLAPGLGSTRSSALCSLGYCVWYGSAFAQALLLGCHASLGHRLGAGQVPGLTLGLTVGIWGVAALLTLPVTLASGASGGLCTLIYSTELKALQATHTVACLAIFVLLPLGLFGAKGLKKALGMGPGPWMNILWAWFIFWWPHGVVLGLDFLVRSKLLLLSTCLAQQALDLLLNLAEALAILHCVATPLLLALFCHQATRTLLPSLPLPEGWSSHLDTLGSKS
Nature of the experiment: footnote a of Table 6; given as affinity constant.

The target of experiment [2] is T1, Duffy Antigen Receptor for Chemokines (DARC) (human). The experiment can be described thus: estimated ka for binding to red blood cells divided by inhibitory ED50 in THP-1 migration.
Experiment [3] has the same target. Nature of the experiment: estimated ka for binding to red blood cells divided by average inhibitory ED50 in THP-1 migration.

The Kd is the concentration at which binding is half-saturated. In experiment [1], KQK (peptide) showed a dissociation constant Kd of 15 µM. Besides, the Duffy selectivity in experiment [2] is 22.3.

As for WVQ (peptide), the Duffy selectivity in experiment [3] was 24.8.
